# Test system: blood-brain barrier
# Experiment: Blood-to-brain transport, in vivo multiple time regression (MTR) analysis
# Details: negative control, value used as V0 for spilanthol
substance,measurement,value
"bovine serum albumin [BSA, reference compound]",vascular brain distribution volume (V0),14.8 µL/g

# From paper PMC4907212, “Mucosal and blood-brain barrier transport kinetics of the plant N-alkylamide spilanthol using in vitro and in vivo models” (BMC Complementary and Alternative Medicine, 2016)
